In patent US20070014810A1, “Inducing cellular immune responses to human papillomavirus using peptide and nucleic acid compositions” (priority 2003, published 2007):

What was measured:
HLA-A*2902 = HLA-A*2902 (Homo sapiens, UniProt P04439, A270S/D101N/D185E/E176V/E277Q/E87Q/F33T/G231S/H175R/I121M/I218V/I322F/K168Q/L300P/L318F/M331R/P208A/P217A/Q86L/T323A/T345S/V100A/V358M); test: HLA class I binding assay using purified HLA molecules
HLA-A*3002 = HLA-A*3002 (Homo sapiens, UniProt P04439, D101N/D140H/D185E/E176R/F33S/G80R/H175R/K168Q/Q94H/R138E/R41S/V100E); test: as above; conditions: allele A*3002, listed under supertypes A01 and A24; read-out: Standard Peptide IC50
[1] = test system: A2/K^b mice, transgenic for the human HLA A2.1 allele; test: Immunogenicity in HLA transgenic mice, in situ IFN-γ ELISA (secretory units); assay type: in vivo; conditions: HLA-A2 supertype peptide, Table 29 first entry
Experimental: Seven days after priming, splenocytes obtained from these animals are re-stimulated with syngenic irradiated LPS-activated lymphoblasts coated with peptide.
In vitro CTL activation: One week after priming, spleen cells (30×10^6 cells/flask) are co-cultured at 37° C. with syngeneic, irradiated (3000 rads), peptide coated lymphoblasts (10×10^6 cells/flask) in 10 ml of culture medium/T25 flask. After six days, effector cells are harvested and assayed for cytotoxic activity. […]
On the day of the assay, the plates are washed and blocked for 2 hours with 10% FBS in PBS. […] The following day, the cells are removed by washing the plates with PBS and Tween 20 and the amount of IFN-γ that was secreted and captured by the bound Clone RA-6A2 monoclonal antibody is measured using a sandwich format ELISA. […] The absorbance is read at 450 nm on a Labsystems Multiskan RC ELISA plate reader (Helsinki, Finland).
In situ IFN-γ ELISA data is then converted to secretory units (“SU”) for evaluation. […] The slope (m) and y intercept (b) are calculated using the formula [(100−b)/m]. Because the number of cells needed to secrete 100 pg of IFN-γ in response to peptide will be lower than the cell number required for 100 pg of spontaneous release, the reciprocal values are calculated. […]

With `CC(C)C[C@H](NC(=O)[C@@H]1CCCN1C(=O)[C@@H](NC(=O)[C@@H](NC(=O)[C@H](C)NC(=O)[C@@H](NC(=O)[C@@H](N)Cc1ccc(O)cc1)[C@@H](C)O)C(C)C)C(C)C)C(=O)N[C@H](C(=O)N[C@@H](Cc1ccc(O)cc1)C(=O)O)C(C)C` as the compound, how does the pIC50 (HLA-A*2902) read?
The pIC50 was 8.30.

With `CC[C@H](C)[C@H](NC(=O)[C@@H](N)CCCNC(=N)N)C(=O)N[C@@H](CO)C(=O)NCC(=O)N[C@H](C(=O)N[C@@H](CC(=O)O)C(=O)N[C@@H](CCCNC(=N)N)C(=O)N[C@@H](Cc1ccc(O)cc1)C(=O)N[C@@H](Cc1ccc(O)cc1)C(=O)O)C(C)C` as the compound, how does the pIC50 (HLA-A*3002) read?
The pIC50 was 8.52.

Which “immunogenicity in secretory units (SU)” value [1] does the source give for “KLPQLCTEV [analog peptide from the E6 protein of HPV-16 beginning at position 18, valine substitution at position 9]” here?
The value was 0.0 SU.

pIC50: −log10 of the molar value.
